Laboratory results taken from US20260384438A1, “PYRROLOPYRIMIDINE CARBOXAMIDES” (published 2026).
Several values for one entry are separate records, joined by “and”; a condition that tells them apart may be missing. Equal entries are not always repeated. Where two headings read alike, the source gives them in different places.

Chains of the proteins cited; added tags and fusions are not shown. Residues count along the entry.
UniProt Q8TCG2, whole entry: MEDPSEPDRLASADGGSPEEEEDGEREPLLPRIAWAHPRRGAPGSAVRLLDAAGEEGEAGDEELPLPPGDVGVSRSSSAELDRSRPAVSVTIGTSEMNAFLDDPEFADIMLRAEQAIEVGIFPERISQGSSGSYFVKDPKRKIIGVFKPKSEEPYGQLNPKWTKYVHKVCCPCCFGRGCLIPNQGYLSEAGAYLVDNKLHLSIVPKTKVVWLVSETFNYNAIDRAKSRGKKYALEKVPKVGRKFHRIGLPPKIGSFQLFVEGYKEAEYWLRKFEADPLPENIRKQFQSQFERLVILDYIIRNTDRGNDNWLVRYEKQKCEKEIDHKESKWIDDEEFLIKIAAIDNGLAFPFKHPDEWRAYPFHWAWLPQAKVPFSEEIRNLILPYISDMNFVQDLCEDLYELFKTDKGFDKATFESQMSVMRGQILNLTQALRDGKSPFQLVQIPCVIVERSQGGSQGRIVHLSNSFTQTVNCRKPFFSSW
UniProt O43318, 1-303 limits assumed: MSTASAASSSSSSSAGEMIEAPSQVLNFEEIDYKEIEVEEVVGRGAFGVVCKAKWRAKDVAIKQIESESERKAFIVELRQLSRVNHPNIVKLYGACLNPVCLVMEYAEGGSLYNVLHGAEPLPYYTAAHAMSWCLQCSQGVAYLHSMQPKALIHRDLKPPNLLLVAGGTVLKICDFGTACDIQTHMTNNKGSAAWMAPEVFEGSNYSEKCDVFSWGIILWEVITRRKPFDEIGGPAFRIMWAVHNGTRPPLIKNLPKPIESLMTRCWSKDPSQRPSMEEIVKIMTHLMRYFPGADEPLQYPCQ
UniProt Q9UKI8, whole entry: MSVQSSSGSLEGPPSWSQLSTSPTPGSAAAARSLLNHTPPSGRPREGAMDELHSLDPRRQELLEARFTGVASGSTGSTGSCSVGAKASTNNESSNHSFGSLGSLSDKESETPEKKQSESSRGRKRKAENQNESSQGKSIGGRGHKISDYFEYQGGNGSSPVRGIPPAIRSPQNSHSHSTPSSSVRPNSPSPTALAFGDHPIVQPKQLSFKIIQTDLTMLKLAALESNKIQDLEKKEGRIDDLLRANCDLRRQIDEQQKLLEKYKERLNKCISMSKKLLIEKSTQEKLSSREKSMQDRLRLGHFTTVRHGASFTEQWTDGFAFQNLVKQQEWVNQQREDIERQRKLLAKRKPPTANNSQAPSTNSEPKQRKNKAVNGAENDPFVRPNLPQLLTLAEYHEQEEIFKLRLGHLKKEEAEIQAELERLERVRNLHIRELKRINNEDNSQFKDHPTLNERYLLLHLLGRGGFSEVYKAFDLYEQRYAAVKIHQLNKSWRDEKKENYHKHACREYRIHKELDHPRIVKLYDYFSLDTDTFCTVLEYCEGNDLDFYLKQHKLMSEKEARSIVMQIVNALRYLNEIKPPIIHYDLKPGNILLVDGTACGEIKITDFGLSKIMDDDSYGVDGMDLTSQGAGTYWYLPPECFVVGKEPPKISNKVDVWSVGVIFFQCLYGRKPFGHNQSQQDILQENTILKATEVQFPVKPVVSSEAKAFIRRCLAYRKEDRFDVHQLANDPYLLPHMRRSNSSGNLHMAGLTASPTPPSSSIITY
UniProt Q99558, whole entry: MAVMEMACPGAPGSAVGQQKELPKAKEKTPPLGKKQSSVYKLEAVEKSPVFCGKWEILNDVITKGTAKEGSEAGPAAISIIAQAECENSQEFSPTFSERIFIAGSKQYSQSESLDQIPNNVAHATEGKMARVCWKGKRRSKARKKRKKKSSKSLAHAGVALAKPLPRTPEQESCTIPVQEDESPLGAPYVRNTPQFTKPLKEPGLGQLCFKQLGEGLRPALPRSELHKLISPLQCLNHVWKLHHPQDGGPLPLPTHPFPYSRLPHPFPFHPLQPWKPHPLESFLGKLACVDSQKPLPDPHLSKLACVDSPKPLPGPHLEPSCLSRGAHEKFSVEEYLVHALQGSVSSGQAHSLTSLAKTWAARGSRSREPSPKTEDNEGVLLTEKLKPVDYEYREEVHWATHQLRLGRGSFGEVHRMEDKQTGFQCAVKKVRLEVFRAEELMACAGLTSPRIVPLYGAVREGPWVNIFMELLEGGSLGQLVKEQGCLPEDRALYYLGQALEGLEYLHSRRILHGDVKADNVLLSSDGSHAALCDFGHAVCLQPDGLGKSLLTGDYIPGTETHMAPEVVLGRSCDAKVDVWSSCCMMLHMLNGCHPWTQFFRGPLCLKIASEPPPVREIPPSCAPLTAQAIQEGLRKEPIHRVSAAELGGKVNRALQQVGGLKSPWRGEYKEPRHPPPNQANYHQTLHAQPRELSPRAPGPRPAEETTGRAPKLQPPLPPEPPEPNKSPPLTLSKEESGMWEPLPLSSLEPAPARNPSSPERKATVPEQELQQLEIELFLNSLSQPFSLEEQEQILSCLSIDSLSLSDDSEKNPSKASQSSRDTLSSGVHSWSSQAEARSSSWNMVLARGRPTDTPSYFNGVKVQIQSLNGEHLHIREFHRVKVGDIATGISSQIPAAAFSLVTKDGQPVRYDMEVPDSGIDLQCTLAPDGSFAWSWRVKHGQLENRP
UniProt Q96RR4, whole entry: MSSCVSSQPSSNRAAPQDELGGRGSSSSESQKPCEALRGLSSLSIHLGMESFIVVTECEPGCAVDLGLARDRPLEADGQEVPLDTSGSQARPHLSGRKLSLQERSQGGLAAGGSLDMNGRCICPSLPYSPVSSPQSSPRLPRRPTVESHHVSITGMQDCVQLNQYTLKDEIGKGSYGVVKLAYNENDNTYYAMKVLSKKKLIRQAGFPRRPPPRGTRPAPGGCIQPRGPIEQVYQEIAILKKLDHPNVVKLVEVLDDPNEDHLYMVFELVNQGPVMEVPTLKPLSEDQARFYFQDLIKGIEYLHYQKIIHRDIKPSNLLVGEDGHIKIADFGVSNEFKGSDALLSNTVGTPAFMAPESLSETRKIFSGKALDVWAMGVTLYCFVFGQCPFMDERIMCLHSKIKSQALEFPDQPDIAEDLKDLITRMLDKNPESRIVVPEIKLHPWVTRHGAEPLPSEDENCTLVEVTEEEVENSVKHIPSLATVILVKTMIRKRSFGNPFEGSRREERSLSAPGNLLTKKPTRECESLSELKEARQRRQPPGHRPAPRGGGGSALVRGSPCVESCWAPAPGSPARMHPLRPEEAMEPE
UniProt O00444, whole entry: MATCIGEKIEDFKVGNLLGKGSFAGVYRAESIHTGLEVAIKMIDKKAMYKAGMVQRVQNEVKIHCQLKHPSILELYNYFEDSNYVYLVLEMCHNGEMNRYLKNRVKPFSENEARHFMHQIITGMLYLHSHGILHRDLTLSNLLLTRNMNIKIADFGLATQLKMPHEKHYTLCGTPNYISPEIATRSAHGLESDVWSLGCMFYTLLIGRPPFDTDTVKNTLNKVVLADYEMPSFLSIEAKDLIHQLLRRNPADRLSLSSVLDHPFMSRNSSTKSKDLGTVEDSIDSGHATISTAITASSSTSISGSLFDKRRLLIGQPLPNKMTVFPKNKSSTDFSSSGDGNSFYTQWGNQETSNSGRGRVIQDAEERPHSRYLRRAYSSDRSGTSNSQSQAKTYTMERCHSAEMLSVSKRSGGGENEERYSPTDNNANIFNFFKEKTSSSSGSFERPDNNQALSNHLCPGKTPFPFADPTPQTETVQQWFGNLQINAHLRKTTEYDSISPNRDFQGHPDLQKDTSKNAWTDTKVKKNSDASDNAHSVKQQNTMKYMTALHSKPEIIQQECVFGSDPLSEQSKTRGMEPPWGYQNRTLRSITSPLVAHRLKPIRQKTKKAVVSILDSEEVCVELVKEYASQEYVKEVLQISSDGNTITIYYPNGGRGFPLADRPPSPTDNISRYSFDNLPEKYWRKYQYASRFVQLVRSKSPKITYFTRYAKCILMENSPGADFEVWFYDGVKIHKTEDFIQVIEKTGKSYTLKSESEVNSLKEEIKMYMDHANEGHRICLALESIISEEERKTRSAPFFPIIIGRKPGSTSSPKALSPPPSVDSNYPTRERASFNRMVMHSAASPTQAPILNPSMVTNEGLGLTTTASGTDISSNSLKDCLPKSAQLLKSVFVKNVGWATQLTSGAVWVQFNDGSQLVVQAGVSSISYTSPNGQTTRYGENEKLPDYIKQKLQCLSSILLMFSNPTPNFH
UniProt O00238, 14-502 limits assumed: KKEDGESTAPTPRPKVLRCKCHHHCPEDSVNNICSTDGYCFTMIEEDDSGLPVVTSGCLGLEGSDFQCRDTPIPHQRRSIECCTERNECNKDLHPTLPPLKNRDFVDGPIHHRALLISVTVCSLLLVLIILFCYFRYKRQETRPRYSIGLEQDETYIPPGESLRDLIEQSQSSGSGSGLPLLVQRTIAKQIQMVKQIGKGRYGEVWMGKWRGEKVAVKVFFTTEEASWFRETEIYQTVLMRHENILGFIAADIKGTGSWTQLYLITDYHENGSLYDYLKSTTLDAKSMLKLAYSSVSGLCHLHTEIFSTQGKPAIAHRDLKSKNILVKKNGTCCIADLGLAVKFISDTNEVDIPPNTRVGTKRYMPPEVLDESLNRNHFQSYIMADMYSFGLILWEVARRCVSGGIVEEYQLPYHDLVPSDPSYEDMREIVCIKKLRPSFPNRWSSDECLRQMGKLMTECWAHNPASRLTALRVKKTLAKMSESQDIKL
UniProt Q9BYT3, whole entry: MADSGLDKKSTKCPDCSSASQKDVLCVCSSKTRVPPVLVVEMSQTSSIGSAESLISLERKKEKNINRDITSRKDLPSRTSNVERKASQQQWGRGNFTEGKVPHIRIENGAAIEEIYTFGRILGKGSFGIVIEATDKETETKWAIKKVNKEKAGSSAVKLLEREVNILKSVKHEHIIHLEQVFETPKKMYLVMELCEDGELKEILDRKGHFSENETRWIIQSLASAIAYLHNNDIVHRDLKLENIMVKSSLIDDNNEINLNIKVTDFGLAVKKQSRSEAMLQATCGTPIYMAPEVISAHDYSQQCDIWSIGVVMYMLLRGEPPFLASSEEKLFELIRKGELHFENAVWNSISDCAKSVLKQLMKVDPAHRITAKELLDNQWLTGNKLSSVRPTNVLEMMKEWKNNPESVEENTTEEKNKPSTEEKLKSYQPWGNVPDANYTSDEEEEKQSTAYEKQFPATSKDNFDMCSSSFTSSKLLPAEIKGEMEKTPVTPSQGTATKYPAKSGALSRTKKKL
UniProt Q8IWQ3, whole entry: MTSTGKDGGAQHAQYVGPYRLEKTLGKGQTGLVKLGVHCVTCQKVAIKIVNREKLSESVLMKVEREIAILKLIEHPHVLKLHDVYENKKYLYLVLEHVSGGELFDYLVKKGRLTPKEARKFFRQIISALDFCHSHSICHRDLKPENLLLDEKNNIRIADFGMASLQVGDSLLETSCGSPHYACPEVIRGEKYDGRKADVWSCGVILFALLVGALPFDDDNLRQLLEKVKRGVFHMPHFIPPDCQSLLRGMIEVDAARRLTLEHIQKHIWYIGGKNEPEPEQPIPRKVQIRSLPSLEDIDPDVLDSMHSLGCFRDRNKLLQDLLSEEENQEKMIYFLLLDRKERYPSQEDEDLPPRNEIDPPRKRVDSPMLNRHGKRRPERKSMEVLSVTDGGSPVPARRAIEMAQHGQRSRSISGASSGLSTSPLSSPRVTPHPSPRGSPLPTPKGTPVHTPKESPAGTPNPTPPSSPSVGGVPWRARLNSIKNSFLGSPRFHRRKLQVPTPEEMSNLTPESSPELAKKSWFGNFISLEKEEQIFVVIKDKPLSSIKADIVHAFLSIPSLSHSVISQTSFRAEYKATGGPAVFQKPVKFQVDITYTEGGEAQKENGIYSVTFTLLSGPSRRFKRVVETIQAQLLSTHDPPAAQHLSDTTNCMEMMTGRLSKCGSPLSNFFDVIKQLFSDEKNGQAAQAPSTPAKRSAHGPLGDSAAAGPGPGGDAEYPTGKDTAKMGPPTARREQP
UniProt Q16539, whole entry: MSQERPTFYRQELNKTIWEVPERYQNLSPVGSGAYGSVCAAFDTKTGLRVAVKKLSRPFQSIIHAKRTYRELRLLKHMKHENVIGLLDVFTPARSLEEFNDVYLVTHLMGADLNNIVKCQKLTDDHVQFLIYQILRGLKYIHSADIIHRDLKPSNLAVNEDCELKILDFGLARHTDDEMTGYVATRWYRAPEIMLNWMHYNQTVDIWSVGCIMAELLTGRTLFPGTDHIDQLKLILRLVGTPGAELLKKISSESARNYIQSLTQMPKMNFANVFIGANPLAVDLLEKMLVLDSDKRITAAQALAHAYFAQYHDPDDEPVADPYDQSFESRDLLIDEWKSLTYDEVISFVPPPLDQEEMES
UniProt Q99640, 75-362 limits assumed: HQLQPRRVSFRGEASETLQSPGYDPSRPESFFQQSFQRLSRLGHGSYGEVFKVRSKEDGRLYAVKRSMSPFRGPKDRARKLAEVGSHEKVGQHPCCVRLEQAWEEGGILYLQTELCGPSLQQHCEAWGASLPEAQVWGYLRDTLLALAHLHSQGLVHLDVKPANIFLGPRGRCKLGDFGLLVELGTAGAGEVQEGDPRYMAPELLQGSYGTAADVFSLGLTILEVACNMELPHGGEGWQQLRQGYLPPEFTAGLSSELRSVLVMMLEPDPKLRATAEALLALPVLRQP

Experiments:
[1] = target: PI4K2B (Homo sapiens, UniProt Q8TCG2); test: Kinase profiling, Adapta *Mn*; details: 1 μM, KmATP
[2] = target: PIK3C3 (hVPS34) (Homo sapiens, UniProt Q8NEB9); test: Kinase profiling, Adapta *Mn*; details: 1 μM, KmATP
[3] = target: CDK4 Cyclin D1 (Homo sapiens, UniProt P11802); test: Kinase profiling, Adapta *Mn*; details: 1 μM, KmATP
[4] = target: CDK4 Cyclin D3 (Homo sapiens, UniProt P11802); test: Kinase profiling, Adapta *Mn*; details: 1 μM, KmATP
[5] = target: PI4K2A (Homo sapiens, UniProt Q9BTU6); test: Kinase profiling, Adapta *Mn*; details: 1 μM, KmATP
[6] = tested on: SKOV3 Parental; test: CellTiter-Glo growth inhibition, SKOV3 Parental
[7] = tested on: PKMYT1 wildtype SKOV3 cells; test: In vitro efficacy in combination with exatecan, PKMYT1 wildtype SKOV3; details: 3-10 μM, WT compared to KO cells, exatecan 1 nM, 7 days
[8] = tested on: OVCAR3 cells; test: Effect on cell cycle / DDR signaling, immunoblotting; details: OVCAR3, 24 h
[9] = target: CDK14(PFTK1)/cyclinY (Homo sapiens, UniProt O94921); test: Kinase profiling, Lantha; details: 1 μM, KmATP
[10] = target: STK16 (PKL12) (Homo sapiens, UniProt O75716); test: Kinase profiling, Lantha; details: 1 μM, KmATP
[11] = target: MAP3K7/MAP3K7IP1 (Homo sapiens, UniProt O43318); test: Kinase profiling, Lantha; details: 1 μM, KmATP
[12] = target: ERN2 (Homo sapiens, UniProt Q76MJ5); test: Kinase profiling, Lantha; details: 1 μM, KmATP
[13] = target: TLK1 (Homo sapiens, UniProt Q9UKI8); test: Kinase profiling, Lantha; details: 1 μM, KmATP
[14] = tested on: CDK11(Inactive); test: Kinase profiling, Lantha; details: 1 μM, KmATP
[15] = target: CASK (Homo sapiens, UniProt O14936); test: Kinase profiling, Lantha; details: 1 μM, KmATP
[16] = target: STK39 (STLK3) (Homo sapiens, UniProt Q9UEW8); test: Kinase profiling, Lantha; details: 1 μM, KmATP
[17] = target: MAP3K14 (NIK) (Homo sapiens, UniProt Q99558); test: Kinase profiling, Lantha; details: 1 μM, KmATP
[18] = target: MAPK8 (JNK1) (Homo sapiens, UniProt P45983); test: Kinase profiling, Lantha; details: 1 μM, KmATP
[19] = target: CAMKK2 (Beta) (Homo sapiens, UniProt Q96RR4); test: Kinase profiling, Lantha; details: 1 μM, KmATP
[20] = target: MAP2K4 (MEK4) (Homo sapiens, UniProt P45985); test: Kinase profiling, Lantha; details: 1 μM, KmATP
[21] = target: MYLK (MLCK) (Homo sapiens, UniProt Q15746); test: Kinase profiling, Lantha; details: 1 μM, KmATP
[22] = target: PLK4 (Homo sapiens, UniProt O00444); test: Kinase profiling, Lantha; details: 1 μM, KmATP
[23] = target: ULK3 (Homo sapiens, UniProt Q6PHR2); test: Kinase profiling, Lantha; details: 1 μM, KmATP
[24] = target: AMPK (A1/B2/G1) (Homo sapiens, UniProt Q13131); test: Kinase profiling, Lantha; details: 1 μM, KmATP
[25] = target: BMPR1B (ALK6) (Homo sapiens, UniProt O00238); test: Kinase profiling, Lantha
[26] = target: MAP3K2 (MEKK2) (Homo sapiens, UniProt Q9Y2U5); test: Kinase profiling, Lantha; details: 1 μM, KmATP
[27] = target: RIPK3 (Homo sapiens, UniProt Q9Y572); test: Kinase profiling, Lantha; details: 1 μM, KmATP
[28] = target: ACVRL1 (ALK1) (Homo sapiens, UniProt P37023); test: Kinase profiling, Lantha
[29] = target: STK33 (Homo sapiens, UniProt Q9BYT3); test: Kinase profiling, Lantha; details: 1 μM, KmATP
[30] = target: MAP2K2 (MEK2) (Homo sapiens, UniProt P36507); test: Kinase profiling, Lantha; details: 1 μM, KmATP
[31] = target: DAPK2 (Homo sapiens, UniProt Q9UIK4); test: Kinase profiling, Lantha; details: 1 μM, KmATP
[32] = target: BRSK2 (Homo sapiens, UniProt Q8IWQ3); test: Kinase profiling, Lantha; details: 1 μM, KmATP
[33] = target: PDPK1 (Homo sapiens, UniProt O15530); test: Kinase profiling, Direct Z-Lyte; details: 1 μM, KmATP
[34] = target: MAPK14 (p38a) (Homo sapiens, UniProt Q16539); test: Kinase profiling, Direct Z-Lyte; details: 1 μM, KmATP
[35] = tested on: SKOV3 cells; test: Cellular proliferation (Hoechst staining), SKOV3; details: read-out: SKOV3 GI50; CCNE1-nonamplified, 4 days
[36] = tested on: SKOV3 PKMYT1 KO (B2); test: CellTiter-Glo growth inhibition, SKOV3 PKMYT1 KO (B2)
[37] = target: PKMYT1 (Homo sapiens, UniProt Q99640); test: SPR direct binding assay; details: 25 °C
[38] = read-out: GI50 VALUES, individual values, 7 days CTG
[39] = read-out: MEAN GI50 (N = 3), mean of N = 3, 7 days CTG
[40] = single-cycle kinetics, 1:1 binding

## Cc1nc(C(F)(F)F)c2c(C(N)=O)c(N)n(-c3c(C)ccc(O)c3C)c2n1 (single isomer, unassigned)
[1]
  MEAN INHIBITION: 0.544%
[2]
  MEAN INHIBITION: −3.447%
[3]
  MEAN INHIBITION: 7.329%
[4]
  MEAN INHIBITION: 5.195%
[5]
  MEAN INHIBITION: −3.804%
[6]; [38]
  GI50: 10.1 µM and 9.93 µM and 9.02 µM
[6]; [39]
  GI50: 9.69 µM
[7]
  combination efficacy with exatecan: more pronounced in vitro efficacy for the combination
[8]
  phospho-CDK1 Thr14 levels: concentration-dependent reduction of phospho-CDK1 Thr14 levels
  phospho-CDK1 Tyr15 expression (WEE1 substrate): without affecting expression
  phospho-Histone H3 Ser10 expression: increased
  phosphorylation of phospho-CHK1, phospho-RPA2 (DNA damage biomarkers): minimal to no phosphorylation
[9]
  MEAN INHIBITION: 12.615%
[10]
  MEAN INHIBITION: 2.533%
[11]
  MEAN INHIBITION: 7.591%
[12]
  MEAN INHIBITION: 23.587%
[13]
  MEAN INHIBITION: −0.646%
[14]
  MEAN INHIBITION: −2.904%
[15]
  MEAN INHIBITION: −5.323%
[16]
  MEAN INHIBITION: 19.173%
[17]
  MEAN INHIBITION: −2.232%
[18]
  MEAN INHIBITION: 2.729%
[19]
  MEAN INHIBITION: 2.806%
[20]
  MEAN INHIBITION: 11.103%
[21]
  MEAN INHIBITION: −1.187%
[22]
  MEAN INHIBITION: 1.109%
[23]
  MEAN INHIBITION: 8.518%
[24]
  MEAN INHIBITION: 1.152%
[25]; 1 μM, KmATP
  MEAN INHIBITION: 96.641%
[25]; 10-point CR, top 10 μM
  IC50: 0.036 µM
[26]
  MEAN INHIBITION: 3.169%
[27]
  MEAN INHIBITION: 23.832%
[28]; 1 μM, KmATP
  MEAN INHIBITION: 89.027%
[28]; 10-point CR, top 10 μM
  IC50: 0.167 µM
[29]
  MEAN INHIBITION: 0.564%
[30]
  MEAN INHIBITION: −0.931%
[31]
  MEAN INHIBITION: 6.764%
[32]
  MEAN INHIBITION: 13.846%
[33]
  MEAN INHIBITION: −1.600%
[34]
  MEAN INHIBITION: 8.973%
[35]
  GI50: > 20.5 µM
[36]; [38]
  GI50: 35.1 µM and 39.5 µM and 32.6 µM
[36]; [39]
  GI50: 35.8 µM
[37]; [40]
  OFF RATE koff: 0.0001 s⁻¹
  ON RATE kon: 240000 M⁻¹ s⁻¹
[37]; read-out: BINDING AFFINITY KD, SPR
  Kd: 0.00042 µM
